Measured values reported in PubChem BioAssay AID1745844 (Carcinogenic Potency Database (CPDB), 2022).
“And” between values parts separate entries of the source, which are not always exact repeats. Identical values can stand only once. The source made the active and inactive calls. No rule for the calls is given here.

System: rodent lifetime carcinogenesis bioassay, tumor incidence TD50
Assay: carcinogenic potency in animals, long-term in vivo studies, CPDB compilation (AID 1745844)
Details: for carcinogen call: strain Buffalo-Mai

CN(N=O)C(=N)N[N+](=O)[O-]
TD50 (monkey, strain Rhesus [Macaca mulatta], both sexes, in feed, site: liver, lesion: hepatocellular adenoma): 3.03 mg/kg/day | TD50 (mouse, strain C57BL/6, females, in drinking water, site: small intestine, lesion: adenocarcinoma, dosed 27 weeks, study length 52 weeks): 2.03 mg/kg/day | carcinogen call (rat, males, in drinking water, site: stomach, glandular, lesion: carcinoma, invasive, dosed 52 weeks, study length 52 weeks): inactive: negative | carcinogen call (rat, males, in drinking water, site: stomach, glandular, lesion: carcinoma, preinvasive, dosed 52 weeks, study length 52 weeks): inactive: negative | TD50 (rat, strain F344/DuCrj, males, in drinking water, site: stomach, lesion: adenocarcinoma, dosed 30 weeks, study length 70 weeks): 1.81 mg/kg/day | TD50 (rat, strain F344/DuCrj, males, in drinking water, site: stomach, lesion: adenoma, dosed 30 weeks, study length 70 weeks): 1.37 mg/kg/day | TD50 (rat, strain Fischer 344, females, in feed, site: liver, lesion: hepatocellular carcinoma, dosed 103 weeks, study length 103 weeks): 17.8 mg/kg/day | TD50 (rat, strain Fischer 344, females, in feed, site: stomach, lesion: carcinoma, dosed 103 weeks, study length 103 weeks): 1.44 mg/kg/day | TD50 (rat, strain Fischer 344, males, in drinking water, site: stomach, glandular, lesion: adenocarcinoma, dosed 50 weeks, study length 105 weeks): 3.19 mg/kg/day | TD50 (rat, strain Fischer 344, males, in drinking water, site: stomach, glandular, lesion: adenocarcinoma, dosed 50 weeks, study length 125 weeks): 5.22 mg/kg/day | TD50 (rat, strain Fischer 344, males, in drinking water, site: stomach, glandular, lesion: adenoma, dosed 50 weeks, study length 105 weeks): 1.65 mg/kg/day | TD50 (rat, strain Fischer 344, males, in drinking water, site: stomach, glandular, lesion: adenoma, dosed 50 weeks, study length 125 weeks): 2.38 mg/kg/day | TD50 (rat, strain Fischer 344, males, in drinking water, site: stomach, glandular, lesion: sarcoma, dosed 50 weeks, study length 105 weeks): 2.48 mg/kg/day | TD50 (rat, strain Fischer 344, males, in drinking water, site: stomach, glandular, lesion: sarcoma, dosed 50 weeks, study length 125 weeks): 16.5 mg/kg/day | TD50 (rat, strain Fischer 344, males, in drinking water, site: stomach, glandular, lesion: several types, types named in the paper, dosed 50 weeks, study length 105 weeks): 0.592 mg/kg/day | TD50 (rat, strain Fischer 344, males, in drinking water, site: stomach, glandular, lesion: several types, types named in the paper, dosed 50 weeks, study length 125 weeks): 1.42 mg/kg/day | TD50 (rat, strain Fischer 344, males, in feed, site: stomach, lesion: carcinoma, dosed 103 weeks, study length 103 weeks): 0.724 mg/kg/day | TD50 (rat, strain Sprague-Dawley, males, in drinking water, site: stomach, glandular, lesion: adenocarcinoma, dosed 30 weeks, study length 52 weeks): 1.61 mg/kg/day | TD50 (rat, strain Sprague-Dawley, males, in drinking water, site: stomach, glandular, lesion: adenocarcinoma, dosed 52 weeks, study length 52 weeks): 1.12 mg/kg/day | TD50 (rat, strain WKY/NCrj (Wistar), males, in drinking water, site: gastric mucosa, lesion: adenocarcinoma, dosed 30 weeks, study length 60 weeks): 0.895 mg/kg/day | TD50 (rat, strain Wistar-Mai-Furth, males, in drinking water, site: stomach, glandular, lesion: carcinoma, invasive, dosed 52 weeks, study length 52 weeks): 6.75 mg/kg/day | TD50 (rat, strain Wistar-random, males, in drinking water, site: stomach, glandular, lesion: carcinoma, invasive, dosed 52 weeks, study length 52 weeks): 1.03 mg/kg/day | TD50 (rat, strain Wistar-random, males, in drinking water, site: stomach, glandular, lesion: carcinoma, preinvasive, dosed 52 weeks, study length 52 weeks): 2.72 mg/kg/day | TD50 (rat, strain Wistar, females, in drinking water, site: bile duct, lesion: cystadenoma, dosed 35 weeks, study length 60 weeks): 0.178 mg/kg/day | TD50 (rat, strain Wistar, females, in drinking water, site: duodenum, lesion: adenocarcinoma, dosed 32 weeks, study length 57 weeks): 6.38 mg/kg/day | TD50 (rat, strain Wistar, females, in drinking water, site: stomach, glandular, lesion: adenocarcinoma, dosed 32 weeks, study length 57 weeks): 6.38 mg/kg/day | TD50 (rat, strain Wistar, females, in drinking water, site: stomach, glandular, lesion: carcinoid tumor, malignant, dosed 35 weeks, study length 60 weeks): 2.38 mg/kg/day | TD50 (rat, strain Wistar, males, in drinking water, site: duodenum, lesion: adenocarcinoma, dosed 28 weeks, study length 52 weeks): 0.584 mg/kg/day | TD50 (rat, strain Wistar, males, in drinking water, site: duodenum, lesion: adenocarcinoma, dosed 32 weeks, study length 57 weeks): 2.72 mg/kg/day | TD50 (rat, strain Wistar, males, in drinking water, site: duodenum, lesion: adenocarcinoma, dosed 75 weeks, study length 75 weeks): 0.91 mg/kg/day | TD50 (rat, strain Wistar, males, in drinking water, site: duodenum, lesion: adenoma, dosed 28 weeks, study length 52 weeks): 23.7 mg/kg/day | TD50 (rat, strain Wistar, males, in drinking water, site: duodenum, lesion: leiomyosarcoma, dosed 28 weeks, study length 52 weeks): 22.8 mg/kg/day | TD50 (rat, strain Wistar, males, in drinking water, site: duodenum, lesion: malignant tumor, dosed 28 weeks, study length 52 weeks): 0.516 mg/kg/day | TD50 (rat, strain Wistar, males, in drinking water, site: duodenum, lesion: one or several types, types not named, dosed 30 weeks, study length 54 weeks): 3.44 mg/kg/day | TD50 (rat, strain Wistar, males, in drinking water, site: esophagus, lesion: squamous-cell carcinoma, dosed 75 weeks, study length 75 weeks): 11 mg/kg/day | TD50 (rat, strain Wistar, males, in drinking water, site: forestomach, lesion: several types, types named in the paper, dosed 28 weeks, study length 52 weeks): 5.79 mg/kg/day | TD50 (rat, strain Wistar, males, in drinking water, site: gastric mucosa, lesion: adenocarcinoma, dosed 75 weeks, study length 75 weeks): 5.31 mg/kg/day | TD50 (rat, strain Wistar, males, in drinking water, site: gastrointestinal tract, lesion: adenocarcinoma, dosed 28 weeks, study length 58 weeks): 0.81 mg/kg/day | TD50 (rat, strain Wistar, males, in drinking water, site: gastrointestinal tract, lesion: several types, types named in the paper, dosed 26 weeks, study length 52 weeks): 1.6 mg/kg/day and 1.92 mg/kg/day | TD50 (rat, strain Wistar, males, in drinking water, site: gastrointestinal tract, lesion: several types, types named in the paper, dosed 32 weeks, study length 87 weeks): 0.581 mg/kg/day | TD50 (rat, strain Wistar, males, in drinking water, site: liver, lesion: cholangioma, cystic, dosed 28 weeks, study length 52 weeks): 4.58 mg/kg/day | TD50 (rat, strain Wistar, males, in drinking water, site: liver, lesion: hepatocellular adenoma, dosed 77 weeks, study length 77 weeks): 14.3 mg/kg/day | TD50 (rat, strain Wistar, males, in drinking water, site: pylorus, lesion: adenocarcinoma, dosed 28 weeks, study length 52 weeks): 0.428 mg/kg/day | TD50 (rat, strain Wistar, males, in drinking water, site: pylorus, lesion: malignant tumor, dosed 28 weeks, study length 52 weeks): 0.41 mg/kg/day | TD50 (rat, strain Wistar, males, in drinking water, site: pylorus, lesion: several types, types named in the paper, dosed 28 weeks, study length 52 weeks): 0.284 mg/kg/day | TD50 (rat, strain Wistar, males, in drinking water, site: small intestine, lesion: adenocarcinoma, dosed 28 weeks, study length 58 weeks): 1.21 mg/kg/day | TD50 (rat, strain Wistar, males, in drinking water, site: stomach, glandular, lesion: adenocarcinoma, dosed 28 weeks, study length 58 weeks): 4.31 mg/kg/day | TD50 (rat, strain Wistar, males, in drinking water, site: stomach, glandular, lesion: adenocarcinoma, dosed 30 weeks, study length 65 weeks): 0.523 mg/kg/day | TD50 (rat, strain Wistar, males, in drinking water, site: stomach, glandular, lesion: adenocarcinoma, dosed 77 weeks, study length 77 weeks): 3.06 mg/kg/day | TD50 (rat, strain Wistar, males, in drinking water, site: stomach, glandular, lesion: adenoma, dosed 77 weeks, study length 77 weeks): 1.13 mg/kg/day | TD50 (rat, strain Wistar, males, in drinking water, site: stomach, glandular, lesion: carcinoid tumor, malignant, dosed 35 weeks, study length 60 weeks): 2.09 mg/kg/day | TD50 (rat, strain Wistar, males, in drinking water, site: stomach, glandular, lesion: one or several types, types not named, dosed 26 weeks, study length 52 weeks): 7.06 mg/kg/day | TD50 (rat, strain Wistar, males, in drinking water, site: stomach, glandular, lesion: several types, types named in the paper, dosed 26 weeks, study length 52 weeks): 2.28 mg/kg/day | TD50 (rat, strain Wistar, males, in drinking water, site: stomach, glandular, lesion: several types, types named in the paper, dosed 77 weeks, study length 77 weeks): 0.693 mg/kg/day | TD50 (rat, strain albino, both sexes, in drinking water, site: forestomach, lesion: papilloma, dosed 78 weeks, study length 78 weeks): 22.9 mg/kg/day | TD50 (rat, strain albino, both sexes, in drinking water, site: stomach, glandular, lesion: adenocarcinoma, dosed 78 weeks, study length 78 weeks): 22.9 mg/kg/day | TD50 (rat, strain albino, males, in drinking water, site: gastric mucosa, lesion: adenocarcinoma, dosed 34 weeks, study length 52 weeks): 0.403 mg/kg/day
